The entries are a selection whose mix differs from that of the whole data set. Activity calls are given as the source filed them. No stated cut-off is given here; in the data, active means activity change below about -30%; inactive means the rest.

50 molecules from PubChem BioAssay AID651819 (National Center for Advancing Translational Sciences (NCATS), 2012) can be followed below.
On the % scale 0 is the no-effect control and ±100 the full control effect.

This assay relates to cytosolic chaperonin (CCT/TRiC complex). The assay can be described thus: High-Throughput Screening for Modulators of Cytosolic Chaperonin Activity. The conditions noted are these: purified chaperonin ATPase assay, HTRF ADP detection, 30 min; stronger effect = lower value. In outline: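 TRiC at 40 or 20 nM final (batch-dependent) in 30 mM Tris pH 7.4, 100 mM KCl, 5 mM MgCl2, 1 mM DTT, with compound at single 76 uM and 10 uM ATP, 30 min at 37 deg C. ADP detected by HTRF Transcreener, 665/615 ratio.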
A general note: Time-resolved FRET reads energy transfer from a long-lived donor to a nearby acceptor.
In the case of `COc1ccc(N/C(=N/P(=O)(N2CCOCC2)N2CCOCC2)N2CCOCC2)cc1`, the activity change was inactive: -0.459%.

As to `Cc1cccc(OCC(=O)OC2CN3CCC2CC3)c1` (stereo not given), the activity change is inactive: -0.572%.

For the molecule `O=[As](O)(c1cccc(O)c1)c1cccc(O)c1`, the activity change was inactive: 0.97%.

`O=C(OC1CN2CCC1CC2)c1ccc(Cl)cc1` (stereo not given): the activity change is inactive: -0.485%.

On to `O=[As](O)(O)c1cccnc1`, for which the activity change was inactive: -1.96%.

For `COc1cc(C(=O)NCC2(N3CCOCC3)CCCCC2)cc(Cl)c1OC(C)C`, the activity change was inactive: -3.82%.

For `CS(=O)(=O)c1ccc(Cl)c(NC(=O)COC(=O)C(O)(c2ccccc2)c2ccccc2)c1`, the activity change is inactive: 0.184%.

As to `COc1cc(C2NCCC3(OCCO3)C2(C)C)cc(OC)c1OC` (stereo not given), the activity change was active: -35.1%.

As to `CCOP(=O)(Nc1cccc2ccccc12)OCC`, the activity change was inactive: -1.4%.

`Nc1cccc2c([As](=O)(O)O)cccc12`: the activity change was inactive: 0.86%.

Consider `Cc1ccc(NCCc2c([N+](=O)[O-])cc([N+](=O)[O-])cc2[N+](=O)[O-])cc1`, for which the activity change was inactive: 2.04%.

As for `CCCOP(=S)(Nc1nc(N)cc(=O)[nH]1)OCCC`, the activity change was inactive: -1.78%.

As for `Nc1ccccc1[As](=O)(O)c1ccccc1`, the activity change was inactive: 0.266%.

Take `O=C(O)COc1ccc([As](=O)(O)O)cc1[N+](=O)[O-]`: the activity change was inactive: -1.37%.

On to `CCOP1(=S)c2c(C)nn(CCC#N)c2N=C(c2ccccc2F)N1C` (stereo not given), for which the activity change was inactive: 2.12%.

For `O=P(Nc1nccs1)(Oc1ccccc1)Oc1ccccc1`, the activity change was inactive: 2.29%.

In the case of `O=P(Nc1nccs1)(c1ccccc1)c1nc2ccccc2s1` (stereo not given), the activity change was inactive: -0.806%.

Regarding `CS(=O)(=O)c1cc([N+](=O)[O-])c2no[n+]([O-])c2c1`, the activity change was inactive: 0.143%.

As to `N#CCCN(C(=O)COC(=O)C(O)(c1ccccc1)c1ccccc1)c1ccc(F)cc1`, the activity change was inactive: 0.952%.

`CCOP1(=S)c2c(C)nn(CCC#N)c2N=C(c2ccc(F)cc2)N1C` (stereo not given): the activity change was inactive: -5.67%.

As for `CN(C(=O)Cc1ccccc1)[C@@H]1CC[C@]2(CCCO2)C[C@H]1N1CCCC1`, the activity change was inactive: 0.28%.

For `O=[N+]([O-])c1ccc2c(c1)nnn2O`, the activity change is inactive: -1.92%.

Consider `CN(C)C(=O)c1cc([N+](=O)[O-])cc2c1-c1c(cc([N+](=O)[O-])cc1[N+](=O)[O-])C2=O`, for which the activity change is inactive: -0.655%.

As to `CN(C(=O)Cc1ccc(Cl)c(Cl)c1)[C@H]1CC[C@@]2(CCCO2)C[C@@H]1N1CCCC1`, the activity change was inactive: -0.203%.

`NC(=O)Nc1ccc([As](=O)(O)O)cc1`: the activity change is inactive: -0.57%.

For `CN(C)C1(CNC(=O)c2ccc(S(C)(=O)=O)cc2)CCCCC1`, the activity change is inactive: -0.962%.

Consider `O=C(/C=C/c1ccccc1)OC1CN2CCC1CC2` (stereo not given), for which the activity change is inactive: 0.425%.

On to `CCCC1OP(=O)(Nc2ccccc2)OCC1CC` (stereo not given), for which the activity change is inactive: 1.32%.

Regarding `Cc1nn(-c2ccccc2)c2c1P(=O)(N1CCOCC1)N(C)C(c1ccccc1)=N2` (stereo not given), the activity change was inactive: 0.446%.

For `CC1CCC(C(C)C)C(OP(=O)(Nc2ccccn2)c2ccccc2)C1` (stereo not given), the activity change is inactive: 0.0783%.

Regarding `Cc1ccc(C(=O)OC2CN3CCC2CC3)cc1` (stereo not given), the activity change was inactive: -0.61%.

Turning to `Nc1cccc([As](=O)(O)c2ccccc2)c1`, the activity change was inactive: -1.09%.

For the molecule `O=[As](O)(c1cccs1)c1cccs1`, the activity change was inactive: 1.36%.

In the case of `Cc1ccc(OCC(=O)OC2CN3CCC2CC3)cc1` (stereo not given), the activity change was inactive: 0.0368%.

On to `O=P1(Nc2ccc(Br)cn2)COc2ccccc2OC1`, for which the activity change was inactive: -2.17%.

Turning to `NS(=O)(=O)c1cccc(NC(=O)COC(=O)C(O)(c2ccccc2)c2ccccc2)c1`, the activity change is inactive: 1.51%.

Take `Cc1ccc(S(=O)(=O)N(CCCN)CCCc2c(C)nc(N)[nH]c2=O)cc1`: the activity change is inactive: -3.09%.

`O=P1(Nc2ncccn2)COc2ccccc2OC1`: the activity change is inactive: -4.88%.

For `O=P1(N(CCCl)CCCl)NCCC(C(F)(F)F)O1` (stereo not given), the activity change was inactive: -1.35%.

With `Clc1n[nH]nc1-c1nn[nH][15n]1`, the activity change is inactive: -0.0184%.

Take `CC(C)(C)C(=O)NC(Sc1ncccn1)C(Cl)(Cl)Cl` (stereo not given): the activity change was inactive: 1.12%.

Regarding `O=P1(Nc2ccccn2)COc2ccccc2OC1`, the activity change was inactive: -0.304%.

`CCC1=CC2Cc3nc4ccc(Cl)cc4c(N)c3C(C1)C2` (stereo not given): the activity change was inactive: 0.106%.

As to `CCOP(=O)(NC(=NC(C)c1ccccc1)NC(C)c1ccccc1)OCC` (stereo not given), the activity change is inactive: 1.44%.

For `CCOP(=O)(Nc1ccc(C)cn1)OCC`, the activity change is inactive: 1.04%.

Consider `CN(CCCl)Cc1cc(Cl)c(NC2=NCCN2)c(Cl)c1`, for which the activity change is inactive: -0.524%.

Regarding `CC(C)/C=N\N=C(\N)N[N+](=O)[O-]`, the activity change was inactive: 2.72%.

In the case of `CN(C(=O)Cc1ccc(Cl)c(Cl)c1)[C@@H]1CCCC[C@H]1N1CCCC1`, the activity change is inactive: -3.42%.

`CC1(CBr)Cn2c(nc3ccccc3c2=O)S1` (stereo not given): the activity change was inactive: 0.875%.

In the case of `COc1ccccc1CNC(=O)COC(=O)C(O)(c1ccccc1)c1ccccc1`, the activity change was inactive: -4.3%.
